Measurements published in ChEMBL document CHEMBL3137440, “DNDi T. cruzi fenarimol series dataset from which preclinical candidate EPL-BS0967 was identified (see also related datasets: CHEMBL3137386 and CHEMBL2448688)”.

Tested on: Trypanosoma cruzi
Assay: DNDI: Chagas in Vitro
Type: functional, organism-based
Details: Tulahuen C4 (LacZ)

IC50: 0.015 µM
SMILES: FC(F)(F)c1ccc(N(c2cccnc2)C2CCN(c3ccc(C(F)(F)F)nc3)CC2)cc1
